The target in the assay is human ApoB-100 (human) (UniProt P04114). The assay is described as follows: SPR; Biacore T200, C1 chip; ApoB-100 captured by amine-coupled monoclonal anti-ApoB antibody (30-35 RU); Flag-tagged DII injected, 1.3–20 nM; 25°C; 20 mM HEPES pH 6.0, 10 mM NaCl, 0.2 mg/ml BSA; 1:1 model (kinetic fit; KD of Fig. 2D from steady state). In general terms: In SPR one partner is held on a chip, and binding of the other changes the refractive index at the surface.

Broadly, the Kd is the equilibrium constant for the complex coming apart. The koff is a measure of how fast the partners let go of each other. Usually kon stands for a measure of how fast the partners come together. Low values mean slower complex formation, high ones faster complex formation.

The substance “Flag-tagged secreted perlecan DII (from UniProt P98160 22-4391) (domain or fragment)” gave a Kd of 4.1 nM, a koff of 0.027 s⁻¹ and a kon of 5.9e+06 M⁻¹ s⁻¹.

The values above are taken from article PMC4306681.
